Experimental findings from patent publication US20260285872A1, “COMPOUNDS AND METHODS FOR DEGRADING GSPT1” (priority 2023, published 2026) are described below.

By UniProt entry, the sequences of proteins in these tests, tags left out. Where a name states a change or a piece, a line headed by the entry shows the natural chain unless it says otherwise.
UniProt P15170, whole entry: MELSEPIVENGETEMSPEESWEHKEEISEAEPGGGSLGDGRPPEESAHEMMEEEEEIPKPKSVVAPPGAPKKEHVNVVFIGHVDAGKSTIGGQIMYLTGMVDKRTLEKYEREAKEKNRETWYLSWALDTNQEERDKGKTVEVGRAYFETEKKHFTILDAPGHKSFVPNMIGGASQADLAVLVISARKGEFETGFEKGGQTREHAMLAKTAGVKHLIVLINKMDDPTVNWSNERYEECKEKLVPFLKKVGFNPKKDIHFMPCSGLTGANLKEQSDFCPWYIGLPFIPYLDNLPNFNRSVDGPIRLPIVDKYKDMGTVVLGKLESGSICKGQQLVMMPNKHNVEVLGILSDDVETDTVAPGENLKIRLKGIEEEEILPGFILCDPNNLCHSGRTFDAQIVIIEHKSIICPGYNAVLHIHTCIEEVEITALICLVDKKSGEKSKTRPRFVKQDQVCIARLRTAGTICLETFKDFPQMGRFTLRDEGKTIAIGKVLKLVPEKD
UniProt Q96SW2: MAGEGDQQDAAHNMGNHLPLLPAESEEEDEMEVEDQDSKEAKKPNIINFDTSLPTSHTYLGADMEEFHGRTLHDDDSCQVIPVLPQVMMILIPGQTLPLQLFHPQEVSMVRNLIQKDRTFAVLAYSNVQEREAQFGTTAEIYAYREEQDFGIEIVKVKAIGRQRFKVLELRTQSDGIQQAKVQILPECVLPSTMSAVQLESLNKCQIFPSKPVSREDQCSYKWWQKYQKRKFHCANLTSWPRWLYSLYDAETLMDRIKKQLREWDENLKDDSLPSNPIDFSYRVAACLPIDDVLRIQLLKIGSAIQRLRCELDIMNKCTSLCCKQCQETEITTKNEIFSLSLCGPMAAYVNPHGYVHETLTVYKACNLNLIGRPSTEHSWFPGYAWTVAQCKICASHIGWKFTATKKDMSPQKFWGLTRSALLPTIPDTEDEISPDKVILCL

The structures appear in SMILES notation.

Test [1] concerns the target T1, GSPT1 (Homo sapiens, UniProt P15170+Q96SW2). As to the kind of experiment: cell-based. As to conditions: MV4-11, MV-4-11 cells, 6 hours, Western Blot, % reduction of GSPT1 compared to DMSO, normalized to GAPDH, read-out: GSPT1 degradation classification. In general terms: A western blot detects proteins with antibodies after separation by electrophoresis.
Test [2] addresses T1, GSPT1. As to the kind of experiment: GSPT1 degradation, Western Blot, MV-4-11 cells, 0.1 μM, 4 hours. As to conditions: MV4-11, % reduction of GSPT1 compared to DMSO, normalized to GAPDH, read-out: GSPT1 degradation classification. The test is classed as cell-based. The procedure:
Compounds of the present disclosure was added to cells (final DMSO concentration of 0.1%) and incubated for 4 hours. GSPT1 levels were determined in MV-4-11 cells using Western Blot analysis. Briefly, whole cell lysates were prepared in lysis buffer (1×RIPA buffer [Thermo, 89900], 1×Pierce protease inhibitor tablets EDTA-free [Thermo, A32965]). 6-20 μg of the lysates was analyzed using Western Blot with antibodies against GSPT1 (Abcam, ab234433 and ab126090) and GAPDH (CST, #2118). Protein levels were normalized to GAPDH levels.
The efficacy of GSPT1 degradation of a part of compounds of the present disclosure was determined by treating MV-4-11 cells at 0.1 μM (final DMSO concentration of 0.1%) for 4 hours. GSPT1 levels were determined using Western Blot and normalized to GAPDH levels. The compounds are classified based on amount of GSPT1 degradation (% reduction of GSPT1 compared to DMSO) as follows. • A: Degradation is greater than or equal to 75%; • B: Degradation is less than 75% & greater than or equal to 50%; • C: Degradation is less than 50%; • ND: No degradation.

Test [3] addresses T1, GSPT1. As to the kind of experiment: GSPT1 degradation, Western Blot, A549 cells, 1 μM, 16 hours. The test is classed as cell-based. As to conditions: % reduction of GSPT1 compared to DMSO, normalized to GAPDH, read-out: GSPT1 degradation classification.
Test [4] deals with T1, GSPT1. The test is classed as cell-based. As to conditions: read-out: GSPT1 degradation classification; DC50, GSPT1_HiBIT_HEK293 cells, 16 hours, Nano-Glo HiBiT Lytic Detection. The procedure: GSPT1_HiBIT_HEK293 cells were culture in DMEM medium with 10% FBS under standard tissue culture conditions. […] GSPT1 level was determined in along with the Nano-Glo HiBiT Lytic Detection system [Promega N3050] with final concentration of 1×. The luminescence was normalized to that of DMSO-treated samples. DC50 values were obtained using three-parameter non-linear regressions using Prism (GraphPad).
In general terms: With HiBiT, luminescence reflects the tagged protein that the partner subunit can reach.

`O=C1CCC(N2Cc3cc(C(=O)N4Cc5ccccc5C4)ccc3C2=O)C(=O)N1` (centres unmarked) [Example 12, 3-(5-(isoindoline-2-carbonyl)-1-oxoisoindolin-2-yl)piperidine-2,6-dione]: the inhibition at 1 µM in test [1] is above 75%.
As to `COc1cc(F)c2c(c1)CCN2C(=O)c1ccc2c(c1)CN(C1CCC(=O)NC1=O)C2=O` (centres unmarked) [Example 64, 3-(5-(7-fluoro-5-methoxyindoline-1-carbonyl)-1-oxoisoindolin-2-yl)piperidine-2,6-dione], the inhibition at 0.1 µM in test [2] was below 50%.
Consider `O=C1CCC(N2Cc3cc(C(=O)N4CCc5c(F)cc(F)cc54)ccc3C2=O)C(=O)N1` (centres unmarked) [Example 92, 3-(5-(4,6-difluoroindoline-1-carbonyl)-1-oxoisoindolin-2-yl)piperidine-2,6-dione], for which the inhibition at 1 µM in test [3] was above 75%.
Still for that read-out and setting: then `O=C1CCC(N2Cc3cc(C(=O)Nc4ccccc4)ccc3C2=O)C(=O)N1` (centres unmarked) [Example 93, 2-(2,6-dioxopiperidin-3-yl)-1-oxo-N-phenylisoindoline-5-carboxamide], with below 50%.
For the compound `O=C1CCC(N2Cc3cc(C(=O)N4Cc5c(F)ccc(OC(F)(F)F)c5C4)ccc3C2=O)C(=O)N1` (centres unmarked) [Example 185, 3-(5-(4-fluoro-7-(trifluoromethoxy)isoindoline-2-carbonyl)-1-oxoisoindolin-2-yl)piperidine-2,6-dione], the DC50 in test [4] was above 1000 nM.
